# Measured values published in US8940313B2, “Tyrosine-based prodrugs of antiviral agents” (priority 2010, dated 2015).
# Tests used:
# [1] = Chemical stability: hydrolysis in 200 mM phosphate buffer, 37° C., LC-MS; conditions: per diastereoisomer, st = stable
# [2] = Enzymatic stability: hydrolysis in rat intestinal homogenate, pH 6.5, 37° C., LC-MS; conditions: pH 6.5, T1/2 Int. Hom., per diastereoisomer, st = stable
smiles,measurement,setting,value
"COC(=O)[C@H](Cc1ccc(O[P@@]2(=O)CO[C@@H](Cn3ccc(N)nc3=O)CO2)cc1)NC(=O)[C@@H](N)C(C)C (single isomer, unassigned) [2f (S,R)]",half-life,"[1]; pH 6.5, T1/2 Buffer pH 6.5, 200 mM phosphate buffer pH 6.5, 37° C.",5.77 h
same,half-life,"[1]; pH 7.4, T1/2 Buffer pH 7.4, 200 mM phosphate buffer pH 7.4, 37° C.",1.1 h
same,half-life,[2],< 0.467 h
